Test [1] has as its target BRAF-GTP-KRAS-G12C complex (Homo sapiens, UniProt P01116+P62937, G12C). Description: KRAS-BRAF complex disruption through competition with CYPA-compound by TR-FRET. The settings on record: read-out: BRAF-GTP-KRAS-G12C Disruption; biochemical BRAF-KRAS G12C-GTP disruption assay EC50, with CYPA. The essentials: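 His6-KRAS G12C-GTP (1-169, 50 nM) with tagless CypA (1-165, 500 nM) was incubated with compound for 3 h at room temperature in pH 7.3 Hepes/NaCl/MgCl2 buffer containing GST-BRAF RBD. Anti-His Eu (10 nM) and anti-GST APC (50 nM) were then added for 1.5 h, and the 665/615 nm TR-FRET ratio was read. EC50 from 4-parameter fit; for specificity, wild-type KRAS replaced G12C, and CypA was omitted to test presenter dependence.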
In general terms: Time-resolved FRET reads energy transfer from a long-lived donor to a nearby acceptor.

The subject of another test is pERK in H358 cells. As to the kind of experiment: pERK inhibition in H358 cells. The settings on record: read-out: Cellular pERK inhibition, 4 hours treatment. A digest of the protocol: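 Human lung cancer H358 cells in RPMI/10% FBS were exposed to compound or DMSO for 4 h. Fixed and permeabilized cells were stained overnight at 4 C with anti-phospho-ERK1/2 (Thr202/Tyr204). Near-infrared imaging read the pERK signal at 800 nm, with DRAQ5 at 700 nm.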

The target of a further test is cyclophilin A (CYPA) (Homo sapiens, UniProt P62937). Description: CYPA-compound binary complex formation by SPR. The settings on record: read-out: CYPA Binding Affinity. The essentials: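 CypA-Avi captured on a Biotin CAPture chip (4 μg/ml), reference flow cell subtracted. Compounds injected as 10-point 2-fold dilutions from 50 μM in HBS-P+ pH7.4 with 2% DMSO; 60 s association and 60 s dissociation, solvent-corrected. Affinity obtained by steady-state fitting.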
In general terms: SPR reads the build-up and loss of mass on a sensor chip optically.

EC50, IC50 and Kd data for 12 compounds are collected here from patent US20240139185A1, “COMPOUNDS THAT PARTICIPATE IN COOPERATIVE BINDING AND USES THEREOF” (Revolution Medicines, Inc., priority 2018, published 2024).

On to `CCC1COC(=O)[C@@H]2CCCN(N2)C(=O)[C@@H](NC(=O)[C@H](C(C)C)N(C)C(=O)C2CN(C(=O)CCl)C2)Cc2cc(O)cc(c2)-c2ccc3c(C#N)cn(c3c2)C1` (stereo partly drawn), for which, in test [1], the EC50 is less than 500 nM. Moreover, in the test with pERK in H358 cells, the IC50 lay within 1 to 10 µM. The Kd at cyclophilin A (CYPA) was less than 5 µM.
As for `Cc1nc2ccc3c(F)c2n1CC(C)(C)COC(=O)[C@@H]1CCCN(N1)C(=O)[C@@H](NC(=O)[C@H](C(C)C)N(C)C(=O)C1CN(C(=O)CCl)C1)Cc1cc(O)cc-3c1`, the EC50 in test [1] was less than 500 nM. Further, the IC50 in the test on pERK in H358 cells was greater than 10 µM. The Kd on cyclophilin A (CYPA) is greater than 15 µM.
As to `C=CC(=O)N1CCN([C@H](C(=O)N[C@H]2Cc3cc(O)cc(c3)-c3ccc4ncn(c4c3)CCCOC(=O)[C@@H]3CCCN(N3)C2=O)C(C)C)C1=O`, the EC50 in test [1] lay within 500 to 5000 nM. Also, the IC50 in the test on pERK in H358 cells was greater than 10 µM. Also, the Kd on cyclophilin A (CYPA) was less than 5 µM.
Regarding `C=CC(=O)N1CC[C@H](C(=O)N(C)[C@H](C(=O)N[C@H]2Cc3cc(O)cc(c3)-c3ccc4c(C(C)(C#N)C5CCOC5)cn(c4c3)CC(C)(C)COC(=O)[C@@H]3CCCN(N3)C2=O)C(C)C)C1` (stereo partly drawn), the EC50 in test [1] was in the range of 500 to 5000 nM. Moreover, the IC50 with pERK in H358 cells was in the range of 1 to 10 µM. In addition, on cyclophilin A (CYPA), the Kd is 5 to 15 µM.
For `C=CC(=O)N1CC[C@H](C(=O)N(C)[C@H](C(=O)N[C@H]2Cc3cc(O)cc(c3)-c3ccc4c(C(C)(C)CC#N)cn(c4c3)CC(C)(C)COC(=O)[C@@H]3CCCN(N3)C2=O)C(C)C)C1`, in that order: 500 to 5000 nM, 1 to 10 µM and 5 to 15 µM.
Turning to `C=CC(=O)N1CC[C@H](C(=O)N(C)[C@H](C(=O)N[C@H]2Cc3cc(O)cc(c3)-c3ccc4c(c3)c(cn4CCC3CCOCC3)CC(C)(C)COC(=O)[C@@H]3CCCN(N3)C2=O)C(C)C)C1`, the EC50 in test [1] is less than 500 nM. For the same compound, the IC50 in the test with pERK in H358 cells was less than 1 µM. Also, the Kd on cyclophilin A (CYPA) was less than 5 µM.
As for `C=CC(=O)N1CCC2(CC1)CCN([C@H](C(=O)N[C@H]1Cc3cc(O)cc(c3)-c3ccc4c(C(C)(C)C#N)cn(c4c3)CC(C)(C)COC(=O)[C@@H]3CCCN(N3)C1=O)C(C)C)C2=O`, in test [1], the EC50 is greater than 5000 nM. Further, the IC50 in the test on pERK in H358 cells was 1 to 10 µM. In addition, on cyclophilin A (CYPA), the Kd was in the range of 5 to 15 µM.
Consider `CC(C)[C@@H](C(=O)N[C@H]1Cc2cc(O)cc(c2)-c2ccc3c(CC4CCOC4)cn(c3c2)C[C@H](C)COC(=O)[C@@H]2CCCN(N2)C1=O)N(C)C(=O)C1CN(C(=O)CCl)C1` (stereo partly drawn), for which the EC50 in test [1] was less than 500 nM. In addition, the IC50 in the test on pERK in H358 cells was less than 1 µM. The Kd at cyclophilin A (CYPA) is less than 5 µM.
For the compound `COc1ccc(C#N)c(-n2cc3c4cc(ccc42)-c2cc(O)cc(c2)C[C@H](NC(=O)[C@H](C(C)C)N(C)C(=O)C2CN(C(=O)[C@@H](C)Cl)C2)C(=O)N2CCC[C@H](N2)C(=O)OCC(C)C3)c1` (stereo partly drawn), the EC50 in test [1] was greater than 5000 nM. In addition, the IC50 in the test with pERK in H358 cells is greater than 10 µM. The Kd at cyclophilin A (CYPA) is less than 5 µM.
For `C=CC(=O)N1CC[C@H](C(=O)N(C)[C@H](C(=O)N[C@H]2Cc3cc(O)cc(c3)-c3ccc4nc(C)n(c4c3)CC(C)(C)COC(=O)[C@@H]3CCCN(N3)C2=O)C(C)C)C1`, the EC50 in test [1] was greater than 5000 nM. Besides, the IC50 in the test on pERK in H358 cells is greater than 10 µM. Also, the Kd at cyclophilin A (CYPA) is greater than 15 µM.
For the compound `CC(C)[C@@H](C(=O)N[C@H]1Cc2cc(O)cc(c2)-c2ccc3c(c2)n(c(=O)n3-c2ccncc2)C[C@H](C)COC(=O)[C@@H]2CCCN(N2)C1=O)N(C)C(=O)C1CN(C(=O)CCl)C1`, the EC50 in test [1] was less than 500 nM. For the same compound, in the test with pERK in H358 cells, the IC50 was greater than 10 µM. For the same compound, the Kd at cyclophilin A (CYPA) was less than 5 µM.
For `CC(C)[C@@H](C(=O)N[C@H]1Cc2cc(O)cc(c2)-c2ccc3c(C4CC4)c(C#N)n(c3c2)CC(C)(C)COC(=O)[C@@H]2CCCN(N2)C1=O)N(C)C(=O)C1CN(C(=O)CCl)C1`, in that order: less than 500 nM, less than 1 µM and greater than 15 µM.
